Measurements published in patent US12285437B2 (The Research Foundation for The State University of new York, priority 2019, dated 2025).

Conditions: for Mol. % of DMA 8 / Mol. % of DMI 7 formed / Mol. % of Decomposition Products / Mol. % of Dox Released: 37° C.

Substance: Doxorubicin Disubstituted Maleamic Acid Glutathione Conjugate [Dox-DMA-GSH 8]
- pH 6.5/7.4 ratio of Dox released (37 C, 45% FBS, after 6 h, listed as prodrug 8): 6
- Mol. % of DMA 8 (pH 6.5, 0 hr, 45% FBS): 90 Mol. %
- Mol. % of DMI 7 formed (pH 6.5, 0 hr, 45% FBS): 8 Mol. %
- Mol. % of Decomposition Products (pH 6.5, 0 hr, 45% FBS): 2 Mol. %
- Mol. % of Dox Released (pH 6.5, 0 hr, 45% FBS): 0 Mol. %
- Mol. % of DMA 8 (pH 6.5, 1 hr, 45% FBS): 61 Mol. %
- Mol. % of DMI 7 formed (pH 6.5, 1 hr, 45% FBS): 10 Mol. %
- Mol. % of Decomposition Products (pH 6.5, 1 hr, 45% FBS): 2 Mol. %
- Mol. % of Dox Released (pH 6.5, 1 hr, 45% FBS): 27 Mol. %
- Mol. % of DMA 8 (pH 6.5, 2 hr, 45% FBS): 47 Mol. %
- Mol. % of DMI 7 formed (pH 6.5, 2 hr, 45% FBS): 13 Mol. %
- Mol. % of Decomposition Products (pH 6.5, 2 hr, 45% FBS): 3 Mol. %
- Mol. % of Dox Released (pH 6.5, 2 hr, 45% FBS): 37 Mol. %
- Mol. % of DMA 8 (pH 6.5, 3 hr, 45% FBS): 38 Mol. %
- Mol. % of DMI 7 formed (pH 6.5, 3 hr, 45% FBS): 13 Mol. %
- Mol. % of Decomposition Products (pH 6.5, 3 hr, 45% FBS): 4 Mol. %
- Mol. % of Dox Released (pH 6.5, 3 hr, 45% FBS): 45 Mol. %
- Mol. % of DMA 8 (pH 6.5, 5 hr, 45% FBS): 11 Mol. %
- Mol. % of DMI 7 formed (pH 6.5, 5 hr, 45% FBS): 13 Mol. %
- Mol. % of Decomposition Products (pH 6.5, 5 hr, 45% FBS): 19 Mol. %
- Mol. % of Dox Released (pH 6.5, 5 hr, 45% FBS): 57 Mol. %
- Mol. % of DMA 8 (pH 6.5, 6 hr, 45% FBS): 8 Mol. %
- Mol. % of DMI 7 formed (pH 6.5, 6 hr, 45% FBS): 12 Mol. %
- Mol. % of Decomposition Products (pH 6.5, 6 hr, 45% FBS): 21 Mol. %
- Mol. % of Dox Released (pH 6.5, 6 hr, 45% FBS): 59 Mol. %
- Mol. % of DMA 8 (pH 6.5, 7 hr, 45% FBS): 6 Mol. %
- Mol. % of DMI 7 formed (pH 6.5, 7 hr, 45% FBS): 11 Mol. %
- Mol. % of Decomposition Products (pH 6.5, 7 hr, 45% FBS): 22 Mol. %
- Mol. % of Dox Released (pH 6.5, 7 hr, 45% FBS): 61 Mol. %
- Mol. % of DMA 8 (pH 6.5, 8.5 hr, 45% FBS): 5 Mol. %
- Mol. % of DMI 7 formed (pH 6.5, 8.5 hr, 45% FBS): 10 Mol. %
- Mol. % of Decomposition Products (pH 6.5, 8.5 hr, 45% FBS): 23 Mol. %
- Mol. % of Dox Released (pH 6.5, 8.5 hr, 45% FBS): 62 Mol. %
- Mol. % of DMA 8 (pH 6.5, 12 hr, 45% FBS): 4 Mol. %
- Mol. % of DMI 7 formed (pH 6.5, 12 hr, 45% FBS): 10 Mol. %
- Mol. % of Decomposition Products (pH 6.5, 12 hr, 45% FBS): 23 Mol. %
- Mol. % of Dox Released (pH 6.5, 12 hr, 45% FBS): 63 Mol. %
- Mol. % of DMA 8 (pH 6.5, 24 hr, 45% FBS): 3 Mol. %
- Mol. % of DMI 7 formed (pH 6.5, 24 hr, 45% FBS): 3 Mol. %
- Mol. % of Decomposition Products (pH 6.5, 24 hr, 45% FBS): 29 Mol. %
- Mol. % of Dox Released (pH 6.5, 24 hr, 45% FBS): 65 Mol. %
- Mol. % of DMA 8 (pH 6.5, 28.5 hr, 45% FBS): 2 Mol. %
- Mol. % of DMI 7 formed (pH 6.5, 28.5 hr, 45% FBS): 2 Mol. %
- Mol. % of Decomposition Products (pH 6.5, 28.5 hr, 45% FBS): 37 Mol. %
- Mol. % of Dox Released (pH 6.5, 28.5 hr, 45% FBS): 59 Mol. %
- Mol. % of DMA 8 (pH 6.5, 32 hr, 45% FBS): 2 Mol. %
- Mol. % of DMI 7 formed (pH 6.5, 32 hr, 45% FBS): 2 Mol. %
- Mol. % of Decomposition Products (pH 6.5, 32 hr, 45% FBS): 37 Mol. %
- Mol. % of Dox Released (pH 6.5, 32 hr, 45% FBS): 59 Mol. %
- Mol. % of DMA 8 (pH 6.5, 48 hr, 45% FBS): 0 Mol. %
- Mol. % of DMI 7 formed (pH 6.5, 48 hr, 45% FBS): 2 Mol. %
- Mol. % of Decomposition Products (pH 6.5, 48 hr, 45% FBS): 44 Mol. %
- Mol. % of Dox Released (pH 6.5, 48 hr, 45% FBS): 54 Mol. %
- Mol. % of DMA 8 (pH 7.4, 0 hr, 45% FBS): 86 Mol. %
- Mol. % of DMI 7 formed (pH 7.4, 0 hr, 45% FBS): 5 Mol. %
- Mol. % of Decomposition Products (pH 7.4, 0 hr, 45% FBS): 9 Mol. %
- Mol. % of Dox Released (pH 7.4, 0 hr, 45% FBS): 0 Mol. %
- serum-induced decomposition of DMA 8 (pH 7.4, 37 C, with FBS): ~45%
- Mol. % of DMA 8 (pH 7.4, 1 hr, 45% FBS): 81 Mol. %
- Mol. % of DMI 7 formed (pH 7.4, 1 hr, 45% FBS): 10 Mol. %
- Mol. % of Decomposition Products (pH 7.4, 1 hr, 45% FBS): 9 Mol. %
- Mol. % of Dox Released (pH 7.4, 1 hr, 45% FBS): 0 Mol. %
- Mol. % of DMI 7 formed (pH 7.4, 4 hr, 45% FBS): 15 Mol. %
- Mol. % of Decomposition Products (pH 7.4, 4 hr, 45% FBS): 29 Mol. %
- Mol. % of Dox Released (pH 7.4, 4 hr, 45% FBS): 11 Mol. %
- Mol. % of DMA 8 (pH 7.4, 8 hr, 45% FBS): 22 Mol. %
- Mol. % of DMI 7 formed (pH 7.4, 8 hr, 45% FBS): 20 Mol. %
- Mol. % of Decomposition Products (pH 7.4, 8 hr, 45% FBS): 47 Mol. %
- Mol. % of Dox Released (pH 7.4, 8 hr, 45% FBS): 11 Mol. %
- Mol. % of DMA 8 (pH 7.4, 24 hr, 45% FBS): 15 Mol. %
- Mol. % of DMI 7 formed (pH 7.4, 24 hr, 45% FBS): 22 Mol. %
- Mol. % of Decomposition Products (pH 7.4, 24 hr, 45% FBS): 50 Mol. %
- Mol. % of Dox Released (pH 7.4, 24 hr, 45% FBS): 13 Mol. %
- Mol. % of DMA 8 (pH 7.4, 32 hr, 45% FBS): 3 Mol. %
- Mol. % of DMI 7 formed (pH 7.4, 32 hr, 45% FBS): 21 Mol. %
- Mol. % of Decomposition Products (pH 7.4, 32 hr, 45% FBS): 65 Mol. %
- Mol. % of Dox Released (pH 7.4, 32 hr, 45% FBS): 11 Mol. %
- Mol. % of DMA 8 (pH 7.4, 45 hr, 45% FBS): 0 Mol. %
- Mol. % of DMI 7 formed (pH 7.4, 45 hr, 45% FBS): 6 Mol. %
- Mol. % of Decomposition Products (pH 7.4, 45 hr, 45% FBS): 84 Mol. %
- Mol. % of Dox Released (pH 7.4, 45 hr, 45% FBS): 10 Mol. %

Like-named read-outs stand apart in the source and are kept apart here.
